MITF TRPM1 HTS = increases MITF-driven TRPM1 promoter luciferase signal | SK-MEL-5 TRPM1-promoter luciferase, 24 h; % of positive control, neutral wells = 0 | 0.75% of 300,000 active | activation, % at 12.5 µM | AID 588334;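 active means mean activation of at least 80% with every replicate also reaching 80%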;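 further: 0% = neutral control wells and 100% = parthenolide positive control wells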
esBAF inh = inhibitors of esBAF chromatin remodeling in mouse ES cells | Bmi1-luciferase knock-in reporter, 24 h; 100% = twice the neutral-well signal | 2% of 350,000 active | reporter increase, % at 12.5 µM; in the data active means activation above about 40%;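 further: 0% = median of the plate's neutral control wells and 100% = double that signal; a rise in the Bmi1 reporter signal indicates esBAF inhibition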
Wnt bcat act = activators of Wnt/beta-catenin signaling; activation, % at 9.35 µM; Wnt/beta-catenin reporter cell assay, activator, plate reader; 1.2% of 300,000 active; in the data active means activation above about 30%, passing the limit was not always enough;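 further: 0% = neutral control wells and 100% = positive control wells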
miR-122 sensor = blocks miR-122 activity in Huh7 sensor cells; activation (reporter increase), % at 12.5 µM; Huh7 miR-122 Renilla luciferase sensor, 48 h; neutral wells = 0, positive control = 100; 0.3% of 340,000 active;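 active means mean replicate activation score at least 90 and every replicate individually at or above 90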;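 further: higher luciferase means less miR-122 activity so hits act as miR-122 inhibitors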
Yeast UUG start = yeast start codon fidelity modulation. S. cerevisiae UUG-firefly luciferase reporter, luminescence/redox ratio. activity score, % at 18.7 µM. 0.13% of 350,000 active;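 active = replicate mean at a twofold rise or more, about +100% in these data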;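 also: firefly luciferase made from a UUG start codon reports start codon fidelity; reporter light over untreated wells divided by growth signal over untreated wells; some hits fall short of that in this replicate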
PglD DTNB = PglD (C. jejuni) enzyme inhibition. 0.098% of 360,000 active. purified PglD enzyme, DTNB colorimetric CoA detection. inhibition, % at 12.5 µM. AID 602405; in the data active means inhibition above about 16%, passing the limit was not always enough
* = called active by the depositor; [ ] = dose if it differs, or a comment. Only some compounds are listed: those with a hit (about 2.8% of all), similar ones and a draw of the others.

What do the screens show for `C[C@H](O)C#Cc1cnc2c(c1)C(=O)N([C@H](C)CO)C[C@@H](C)[C@@H](CN(C)CC1CCOCC1)O2`?
esBAF inh: -4.2; miR-122 sensor: 0.3[16.7 µM]; PglD DTNB: -8.3

How did CCCNC(=O)C[C@@H]1C[C@H]2c3cc(NC(=O)COC)ccc3O[C@H]2[C@H](CO)O1 do in these assays?
esBAF inh: 2.6; miR-122 sensor: 3.3[16.7 µM]; PglD DTNB: 0.8

What do the screens show for `COc1ccc(C)cc1S(=O)(=O)Nc1cccc(C)c1`?
MITF TRPM1 HTS: 0.9; Wnt bcat act: -1.2

How did COc1ccc(C)cc1S(=O)(=O)Nc1cccc(SC)c1 do in these assays?
MITF TRPM1 HTS: 2.3; esBAF inh: 2.4; miR-122 sensor: 165.5*

How did COc1ccc(NS(=O)(=O)c2cc(C)ccc2OC)cc1OC do in these assays?
MITF TRPM1 HTS: -8.5; esBAF inh: -1.4; Wnt bcat act: -1.1; miR-122 sensor: 94.7*; Yeast UUG start: -12.6; PglD DTNB: 11.8

How did O=C(Nc1cc2c(cc1Cl)OCCO2)c1ccco1 do in these assays?
esBAF inh: 36.0; miR-122 sensor: 10.0; Yeast UUG start: -3.9; PglD DTNB: -2.9

How did O=C(Nc1cc2c(cc1C(=O)O)OCCCO2)c1ccc(C(F)(F)F)cc1 do in these assays?
MITF TRPM1 HTS: 30.6; esBAF inh: 55.2*; Wnt bcat act: 19.6; miR-122 sensor: 7.8; Yeast UUG start: -4.1; PglD DTNB: -1.0

What do the screens show for `CCc1ccc(C(=O)Nc2cc3c(cc2Cl)OCCCO3)cc1`?
MITF TRPM1 HTS: 108.9*; esBAF inh: 69.0*; miR-122 sensor: -0.8; Yeast UUG start: -9.1; PglD DTNB: 2.6

What do the screens show for `O=C(Cc1ccccc1)Nc1cc2c(cc1Cl)OCCCO2`?
MITF TRPM1 HTS: 94.1*; esBAF inh: 63.8*; Wnt bcat act: 14.4; miR-122 sensor: -2.4; Yeast UUG start: -12.0; PglD DTNB: -2.0

Results for CC(C)NC(=O)Nc1ccc2c(c1)C(=O)N([C@@H](C)CO)C[C@@H](C)[C@@H](CN(C)Cc1ccccc1)OCCCC[C@@H](C)O2 ?
esBAF inh: 2.6; miR-122 sensor: -1.6[16.7 µM]; Yeast UUG start: 34.8; PglD DTNB: 5.3

What do the screens show for `C[C@@H]1CN([C@H](C)CO)C(=O)c2cc(NS(=O)(=O)c3ccc(F)cc3)ccc2O[C@@H]1CN(C)CC1CC1`?
esBAF inh: -3.7; miR-122 sensor: -1.8[16.7 µM]; Yeast UUG start: -10.7; PglD DTNB: 7.7

Results for COc1cccc(C(=O)N2C[C@H]3[C@@H](c4ccccc42)[C@@H](CO)N3Cc2cccnc2)c1 ?
esBAF inh: -3.8; miR-122 sensor: 0.0[16.7 µM]; Yeast UUG start: -4.0; PglD DTNB: 0.2

Entries from the list above with fluorine, in the order listed:
How did O=C(Nc1cc2c(cc1C(=O)O)OCCCO2)c1ccc(C(F)(F)F)cc1 do in these assays?
MITF TRPM1 HTS: 30.6; esBAF inh: 55.2*; Wnt bcat act: 19.6; miR-122 sensor: 7.8; Yeast UUG start: -4.1; PglD DTNB: -1.0

What do the screens show for `C[C@@H]1CN([C@H](C)CO)C(=O)c2cc(NS(=O)(=O)c3ccc(F)cc3)ccc2O[C@@H]1CN(C)CC1CC1`?
esBAF inh: -3.7; miR-122 sensor: -1.8[16.7 µM]; Yeast UUG start: -10.7; PglD DTNB: 7.7

Continuation:
What do the screens show for `CC(=O)c1cccc(NS(=O)(=O)c2ccc3c(c2)oc(=O)n3C)c1`?
esBAF inh: 2.0; miR-122 sensor: 207.9*; Yeast UUG start: -11.8; PglD DTNB: 0.4

How did Cn1c(=O)oc2cc(S(=O)(=O)Nc3cccc(C(=O)O)c3)ccc21 do in these assays?
MITF TRPM1 HTS: -2.1; esBAF inh: 3.4; miR-122 sensor: -1.7; Yeast UUG start: -5.6; PglD DTNB: -3.1

How did Cn1c(=O)oc2cc(S(=O)(=O)Nc3ccc4c(c3)OCO4)ccc21 do in these assays?
MITF TRPM1 HTS: -3.1; esBAF inh: 45.3*; Wnt bcat act: 2.1; miR-122 sensor: 35.7; Yeast UUG start: -18.6; PglD DTNB: -7.1

What do the screens show for `CN(C)CCCNC(=O)C[C@@H]1CC[C@@H](NC(=O)Cc2cccnc2)[C@H](CO)O1`?
esBAF inh: -5.4; Yeast UUG start: -33.0; PglD DTNB: -0.1

What do the screens show for `CC(=O)C(Sc1nn(C)c(=S)s1)C(=O)Nc1ccccc1` (centres undefined)?
MITF TRPM1 HTS: 18.3; esBAF inh: 77.1*; miR-122 sensor: -1.9; Yeast UUG start: -24.5; PglD DTNB: 0.1

Results for CC(=O)C(Sc1nc(N(C)C)nc(N(C)C)n1)C(=O)Nc1ccccc1 (centres undefined) ?
MITF TRPM1 HTS: -0.3; esBAF inh: 2.4; Wnt bcat act: -4.7; miR-122 sensor: -3.2; Yeast UUG start: -16.6; PglD DTNB: -7.4

Results for COC(=O)c1c(NC(=O)c2ccc(C)o2)sc2c1CCCCC2 ?
esBAF inh: 62.5*; Wnt bcat act: 52.2*; miR-122 sensor: -7.8; Yeast UUG start: -6.6; PglD DTNB: -5.4

What do the screens show for `Cc1ccc(C(=O)Nc2sc3c(c2C(=O)O)CCC(C)C3)o1` (centres undefined)?
MITF TRPM1 HTS: 37.1; esBAF inh: 48.6*; Wnt bcat act: 10.9; miR-122 sensor: 2.6; Yeast UUG start: -9.6; PglD DTNB: -1.1

What do the screens show for `Cc1ccc(C(=O)Nc2sc3c(c2C(=O)O)CCCCC3)o1`?
MITF TRPM1 HTS: 58.1; esBAF inh: 10.1; miR-122 sensor: 62.8; Yeast UUG start: -16.1; PglD DTNB: 0.3

How did O=C(C[n+]1cccc(Br)c1)c1ccc(-c2ccccc2)cc1 do in these assays?
MITF TRPM1 HTS: 14.9; esBAF inh: 44.4*; Wnt bcat act: 1.6; miR-122 sensor: 18.8; Yeast UUG start: -24.7; PglD DTNB: -0.6

Results for CN1CCN(c2ccc(-c3ccnn3C(=O)Nc3ccccc3)cc2)CC1 ?
MITF TRPM1 HTS: 48.8; Wnt bcat act: 44.1*

What do the screens show for `CC(=Nc1ccc(C)c(C)c1)C1=C(O)CSC1=O`?
MITF TRPM1 HTS: 132.0*; esBAF inh: 51.3*; miR-122 sensor: 4.8; Yeast UUG start: -6.7; PglD DTNB: -5.6

Sorted by formula weight (falling): some entries from above
How did O=C(C[n+]1cccc(Br)c1)c1ccc(-c2ccccc2)cc1 do in these assays?
MITF TRPM1 HTS: 14.9; esBAF inh: 44.4*; Wnt bcat act: 1.6; miR-122 sensor: 18.8; Yeast UUG start: -24.7; PglD DTNB: -0.6

How did Cn1c(=O)oc2cc(S(=O)(=O)Nc3ccc4c(c3)OCO4)ccc21 do in these assays?
MITF TRPM1 HTS: -3.1; esBAF inh: 45.3*; Wnt bcat act: 2.1; miR-122 sensor: 35.7; Yeast UUG start: -18.6; PglD DTNB: -7.1

What do the screens show for `CC(=O)C(Sc1nn(C)c(=S)s1)C(=O)Nc1ccccc1` (centres undefined)?
MITF TRPM1 HTS: 18.3; esBAF inh: 77.1*; miR-122 sensor: -1.9; Yeast UUG start: -24.5; PglD DTNB: 0.1

(continued)
How did CCc1c(C)nc2cc(-c3ccc(Cl)cc3)[nH]n2c1=O do in these assays?
esBAF inh: 56.3*; Wnt bcat act: 10.7; miR-122 sensor: 2.2; Yeast UUG start: 0.5; PglD DTNB: 5.8

How did CCOC(=O)CCc1c(C)nc2cc(-c3ccc(Cl)cc3)[nH]n2c1=O do in these assays?
MITF TRPM1 HTS: 15.8; esBAF inh: -5.8; Wnt bcat act: -0.8; miR-122 sensor: 5.5; Yeast UUG start: -12.5; PglD DTNB: 4.5

How did COCc1cc(=O)n2[nH]c(-c3cccc(Br)c3)cc2n1 do in these assays?
MITF TRPM1 HTS: 22.8; esBAF inh: -12.2; miR-122 sensor: 3.4; Yeast UUG start: -3.4; PglD DTNB: 1.2

Results for CCc1c(C)nc2cc(-c3cccc(Br)c3)[nH]n2c1=O ?
esBAF inh: 56.5*; Wnt bcat act: 36.3*; Yeast UUG start: -21.2; PglD DTNB: 3.9

What do the screens show for `C[C@@H]1CN([C@H](C)CO)C(=O)c2cc(NC(=O)Nc3ccccc3)ccc2O[C@@H](C)CCCCO[C@@H]1CN(C)C(=O)NC1CCCCC1`?
esBAF inh: -4.8; miR-122 sensor: -7.0[16.7 µM]; Yeast UUG start: -12.2; PglD DTNB: 1.2

Results for CCS(=O)(=O)N1CCCCN2[C@@H](CO)[C@@H](c3ccc(C#Cc4ccccc4OC)cc3)[C@@H]2C1 ?
miR-122 sensor: -10.4[16.7 µM]; Yeast UUG start: 13.8; PglD DTNB: -1.4

What do the screens show for `O=C(Nc1ccccc1)c1cc([N+](=O)[O-])ccc1NC1CCCCC1`?
MITF TRPM1 HTS: 14.8; Wnt bcat act: -0.3; miR-122 sensor: 122.8*; Yeast UUG start: -11.7; PglD DTNB: 2.6

Assay outcomes: PubChem, Broad Institute
